Results taken from ChEMBL document CHEMBL1144389, “Optimization of purine based PDE1/PDE5 inhibitors to a potent and selective PDE5 inhibitor for the treatment of male ED” (Bioorg Med Chem Lett, 2005).

Amino acid sequences for entries named in this document (tags omitted). A change or cut given only in a name is not applied to a line headed by its entry.
UniProt P27815: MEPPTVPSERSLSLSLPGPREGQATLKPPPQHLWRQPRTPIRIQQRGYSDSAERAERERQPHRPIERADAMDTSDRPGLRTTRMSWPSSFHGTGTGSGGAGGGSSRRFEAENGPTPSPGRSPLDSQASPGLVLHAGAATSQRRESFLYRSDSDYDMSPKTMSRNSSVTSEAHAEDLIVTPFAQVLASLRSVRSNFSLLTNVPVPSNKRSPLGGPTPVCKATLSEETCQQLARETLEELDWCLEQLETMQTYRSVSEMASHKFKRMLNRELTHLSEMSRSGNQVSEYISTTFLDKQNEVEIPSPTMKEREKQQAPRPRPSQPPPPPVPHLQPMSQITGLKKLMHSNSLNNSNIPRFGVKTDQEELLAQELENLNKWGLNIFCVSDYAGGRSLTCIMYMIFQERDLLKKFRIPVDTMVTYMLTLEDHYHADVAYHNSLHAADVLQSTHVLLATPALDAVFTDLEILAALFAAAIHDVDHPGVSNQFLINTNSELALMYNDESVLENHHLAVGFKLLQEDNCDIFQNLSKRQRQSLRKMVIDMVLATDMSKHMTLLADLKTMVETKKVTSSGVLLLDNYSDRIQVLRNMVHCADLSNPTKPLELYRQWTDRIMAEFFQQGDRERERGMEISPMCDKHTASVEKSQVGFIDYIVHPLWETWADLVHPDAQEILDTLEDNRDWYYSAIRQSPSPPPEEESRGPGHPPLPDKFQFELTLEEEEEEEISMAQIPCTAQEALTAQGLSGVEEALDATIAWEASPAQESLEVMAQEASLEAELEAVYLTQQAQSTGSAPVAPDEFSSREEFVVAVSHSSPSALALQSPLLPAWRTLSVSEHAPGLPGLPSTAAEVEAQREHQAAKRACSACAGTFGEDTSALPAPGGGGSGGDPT
UniProt Q08499: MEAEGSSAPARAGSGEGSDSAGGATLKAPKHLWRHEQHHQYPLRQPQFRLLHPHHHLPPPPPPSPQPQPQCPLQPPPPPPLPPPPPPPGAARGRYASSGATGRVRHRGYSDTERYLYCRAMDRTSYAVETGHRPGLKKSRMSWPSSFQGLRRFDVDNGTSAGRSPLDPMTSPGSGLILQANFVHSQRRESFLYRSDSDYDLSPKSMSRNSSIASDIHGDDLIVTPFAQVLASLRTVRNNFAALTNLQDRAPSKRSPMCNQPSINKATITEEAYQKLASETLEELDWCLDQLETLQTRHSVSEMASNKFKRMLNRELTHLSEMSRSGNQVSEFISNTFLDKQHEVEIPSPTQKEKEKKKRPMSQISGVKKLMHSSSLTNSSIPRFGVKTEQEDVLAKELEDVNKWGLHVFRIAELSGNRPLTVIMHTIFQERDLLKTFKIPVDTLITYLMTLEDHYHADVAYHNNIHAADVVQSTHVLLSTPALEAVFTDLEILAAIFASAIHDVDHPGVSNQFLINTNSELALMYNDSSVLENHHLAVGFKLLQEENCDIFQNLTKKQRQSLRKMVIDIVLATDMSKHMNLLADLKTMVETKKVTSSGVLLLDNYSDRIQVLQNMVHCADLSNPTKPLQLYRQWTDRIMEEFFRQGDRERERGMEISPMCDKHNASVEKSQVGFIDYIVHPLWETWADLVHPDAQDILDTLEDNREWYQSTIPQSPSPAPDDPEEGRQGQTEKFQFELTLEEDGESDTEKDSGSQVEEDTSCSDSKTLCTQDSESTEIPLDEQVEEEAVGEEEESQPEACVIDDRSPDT
UniProt Q07343: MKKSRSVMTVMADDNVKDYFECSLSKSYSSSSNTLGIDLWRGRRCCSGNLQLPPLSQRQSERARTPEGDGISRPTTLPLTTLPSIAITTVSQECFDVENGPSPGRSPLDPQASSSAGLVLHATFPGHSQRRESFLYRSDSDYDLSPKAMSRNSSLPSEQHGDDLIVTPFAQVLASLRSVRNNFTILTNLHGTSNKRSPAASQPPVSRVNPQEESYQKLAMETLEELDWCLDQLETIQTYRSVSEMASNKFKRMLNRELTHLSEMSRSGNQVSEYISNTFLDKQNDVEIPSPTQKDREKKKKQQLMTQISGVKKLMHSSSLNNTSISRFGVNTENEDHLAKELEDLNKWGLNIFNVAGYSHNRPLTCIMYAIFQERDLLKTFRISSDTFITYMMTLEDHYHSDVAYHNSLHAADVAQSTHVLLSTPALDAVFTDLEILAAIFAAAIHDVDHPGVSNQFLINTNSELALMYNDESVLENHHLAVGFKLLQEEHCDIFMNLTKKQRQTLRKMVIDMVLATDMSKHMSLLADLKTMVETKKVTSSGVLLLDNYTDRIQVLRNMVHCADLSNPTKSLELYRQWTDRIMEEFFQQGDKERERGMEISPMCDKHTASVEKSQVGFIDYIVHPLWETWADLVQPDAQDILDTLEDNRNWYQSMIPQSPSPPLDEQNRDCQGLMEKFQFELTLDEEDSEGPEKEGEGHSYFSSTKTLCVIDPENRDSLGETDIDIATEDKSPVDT
UniProt Q08493: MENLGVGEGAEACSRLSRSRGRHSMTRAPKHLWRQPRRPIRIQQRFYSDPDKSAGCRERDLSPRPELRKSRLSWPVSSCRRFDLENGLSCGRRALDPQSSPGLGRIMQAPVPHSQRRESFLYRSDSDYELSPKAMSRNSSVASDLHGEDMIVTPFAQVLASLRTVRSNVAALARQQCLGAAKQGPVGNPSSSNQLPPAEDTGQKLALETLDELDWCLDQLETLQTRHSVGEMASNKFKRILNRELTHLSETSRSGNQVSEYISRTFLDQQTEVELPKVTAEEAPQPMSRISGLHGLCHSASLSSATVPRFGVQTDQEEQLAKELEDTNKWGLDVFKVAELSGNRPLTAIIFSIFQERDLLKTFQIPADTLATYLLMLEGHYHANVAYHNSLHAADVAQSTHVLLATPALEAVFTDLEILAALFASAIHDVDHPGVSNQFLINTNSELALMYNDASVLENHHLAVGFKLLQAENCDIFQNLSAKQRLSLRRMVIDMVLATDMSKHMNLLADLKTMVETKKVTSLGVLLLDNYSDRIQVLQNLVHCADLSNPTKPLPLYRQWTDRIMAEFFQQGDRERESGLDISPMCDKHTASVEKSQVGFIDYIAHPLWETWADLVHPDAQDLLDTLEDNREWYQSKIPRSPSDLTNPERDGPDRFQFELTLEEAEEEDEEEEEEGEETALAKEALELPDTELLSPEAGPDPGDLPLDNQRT

Target: Phosphodiesterase 4 (Homo sapiens, UniProt P27815+Q08499+Q07343+Q08493)
Assay: Inhibition of human phosphodiesterase 4
Format: protein assay

IC50: > 10 µM
Structure (SMILES): CN1CC(=O)N2[C@H](c3ccc4c(c3)OCO4)c3[nH]c4ccccc4c3C[C@@H]2C1=O
